# According to PubChem BioAssay (Tox21):
# Sequences of proteins named here, by UniProt entry; tags and fusion partners are left off.
# UniProt P04150, whole entry: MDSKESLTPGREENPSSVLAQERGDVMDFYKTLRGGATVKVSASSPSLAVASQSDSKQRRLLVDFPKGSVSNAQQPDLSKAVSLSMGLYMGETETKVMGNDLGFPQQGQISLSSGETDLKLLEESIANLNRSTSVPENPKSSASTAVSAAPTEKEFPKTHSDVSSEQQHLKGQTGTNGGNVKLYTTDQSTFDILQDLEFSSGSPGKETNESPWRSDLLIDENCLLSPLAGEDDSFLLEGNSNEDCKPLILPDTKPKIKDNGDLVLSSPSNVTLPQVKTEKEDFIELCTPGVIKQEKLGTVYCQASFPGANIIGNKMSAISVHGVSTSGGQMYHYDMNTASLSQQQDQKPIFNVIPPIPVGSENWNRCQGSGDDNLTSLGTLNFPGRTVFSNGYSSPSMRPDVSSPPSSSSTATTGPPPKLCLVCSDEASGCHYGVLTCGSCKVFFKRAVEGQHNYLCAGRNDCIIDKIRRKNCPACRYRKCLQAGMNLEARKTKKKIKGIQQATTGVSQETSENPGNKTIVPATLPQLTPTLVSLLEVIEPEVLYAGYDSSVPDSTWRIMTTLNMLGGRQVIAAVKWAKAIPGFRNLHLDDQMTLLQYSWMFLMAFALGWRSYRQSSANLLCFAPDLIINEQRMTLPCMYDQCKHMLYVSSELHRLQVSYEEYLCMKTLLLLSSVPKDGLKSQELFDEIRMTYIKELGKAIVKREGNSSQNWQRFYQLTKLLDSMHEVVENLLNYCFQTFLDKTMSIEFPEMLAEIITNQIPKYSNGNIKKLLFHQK
# Where “and” joins values, the source holds several entries; their conditions need not be identical. Equal entries are not always repeated. The entries are a selection whose mix differs from that of the whole data set. Records with an inconclusive call do not appear. Where a structure was tested more than once in an assay, its records may differ in their call. Calls of active or inactive are those of the source. Unless noted, the call rests on the fitted dose curve; in most records, active means well fitted curve in the direction sought with a large enough effect in the repeat runs; inconclusive means weak or mixed curves; inactive means flat fitted curve, though single readings scatter.
# Experiments:
# [1] = qHTS assay to test for compound auto fluorescence at 535 nm (green) in HEK293 cells (AID 720680); conditions: green autofluorescence 485/535 nm
# [2] = qHTS assay to test for compound auto fluorescence at 460 nm (blue) in HEK293 cell free culture (AID 720681); conditions: cell-free medium, autofluorescence 405/460 nm (blue)
# Source text: (§1) U.S. Tox21 Program National Center for Advancing Translational Sciences [NCATS] NIH Chemical Genomics Center [NCGC] U.S. Environmental Protection Agency [EPA] National Institutes of Environmental Health Sciences [NIEHS] National Toxicology Program [NTP] U.S. Food and Drug Administration [FDA] Tox21 Assay Overview: Compound auto fluorescence often interferes with screening of the compound library against various biological targets and signaling pathways. Some of these compounds may have fluorophoric properties. Such properties may interfere with the assay outputs resulting in false positives and/or negatives. To decrease such complications and ensure the compound activities are relevant in terms of biological response, the Tox21 10K compound library was screened for auto fluorescence. From the fluorophores used as reporter signals in our screening assays, the auto fluorescence equivalencies of compounds against three fluorophores have been evaluated: Triamterene, Fluorescein and Rose Bengal sodium for blue, green and red fluorescence, respectively. The fluorescence intensities were measured using Excitation/Emission wavelengths at 405/460nm, 485/535nm and 540/590nm for blue, green and red labels, respectively. This assay includes the blue fluorescence data.
# (§2) Tox21 Assay Protocol Summary: 5 uL of culture medium (DMEM containing 10% FBS) per well was dispensed into black wall/clear bottom 1536-well plates using a Multidrop Combi Dispenser (ThermoFisher Scientific, Waltham, MA). After 23 nL compound or DMSO vehicle was transferred into assay plate by a pintool work station (Kalypsys, San Diego, CA), fluorescence intensities in the assay plates were measured by an Envision (PerkinElmer, Shelton, CT) plate reader using three labels for measuring blue, green and red fluorescence at […] 460, 535 and 590nm respectively.
# [3] = qHTS assay to test for compound auto fluorescence at 535 nm (green) in HEK293 cell free culture (AID 720682); conditions: cell-free medium, green autofluorescence 485/535 nm, stronger effect = higher value
# In short: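 Measurement is a direct plate read of green fluorescence (485 nm in, 535 nm out) after compound addition to serum-supplemented DMEM lacking cells, with fluorescein used to express intensities.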
# [4] = qHTS assay to test for compound auto fluorescence at 590 nm (red) in HEK293 cell free culture (AID 720683); conditions: cell-free medium autofluorescence, Ex540/Em590 red
# Source text: as §1, with “the red” for “the blue”
# as §2
# [5] = qHTS assay to test for compound auto fluorescence at 590 nm (red) in HepG2 cell free culture (AID 720684); conditions: cell-free medium autofluorescence, red 540/590 nm
# In short: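 Ex 540 / Em 590 nm read of compound in cell-free MEM (10% FBS). Rose Bengal sodium reference.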
# [6] = qHTS assay to test for compound auto fluorescence at 460 nm (blue) in HepG2 cell free culture (AID 720685); conditions: Cell-free culture medium, blue autofluorescence 405/460 nm
# In short: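 Cell-free plates of MEM plus 10% FBS received 23 nL compound or DMSO vehicle; blue-channel (405/460 nm) intensity scored against triamterene as reference fluorophore.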
# [7] = qHTS assay to test for compound auto fluorescence at 535 nm (green) in HepG2 cell free culture (AID 720686); conditions: Cell-free medium, green autofluorescence 485/535 nm
# [8] = qHTS assay to test for compound auto fluorescence at 460 nm (blue) in HepG2 cells (AID 720687); conditions: autofluorescence 405/460 nm, 1 h
# In short: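 Cells (2,000/well in MEM with 10% FBS) attached overnight at 37 C, then were exposed to compound or DMSO for 1 hr at 37 C, 5% CO2. Fluorescence read at Ex/Em 405/460 nm, expressed as triamterene-equivalent signal.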
# [9] = molecular target: Glucocorticoid receptor (Homo sapiens) (UniProt P04150); test: qHTS assay to identify small molecule agonists of the glucocorticoid receptor (GR) signaling pathway (AID 720691; active means well fitted activation curve with a large enough effect in the signal ratio in the repeat runs, not every such curve was filed as active; the % refers to the signal ratio); conditions: GR-bla HeLa, beta-lactamase reporter ratio, 18 h
# [10] = molecular target: Glucocorticoid receptor (Homo sapiens) (UniProt P04150); test: qHTS assay to identify small molecule antagonists of the glucocorticoid receptor (GR) signaling pathway (AID 720692; active means well fitted inhibition curve with a large enough effect in the signal ratio in the repeat runs, not every such curve was filed as active; the % refers to the signal ratio; further: potency means the concentration at half of the fitted maximal effect); conditions: GR-bla HeLa, beta-lactamase FRET ratio, dexamethasone-stimulated, 18 h; series mostly up to 58.5 µM
# On the % scale 0 is the no-effect control and ±100 the full control effect.
SMILES,"fluorescence, % of fluorescein ([1]; at 91.3 µM (top of the series))","fluorescence, % of fluorescent control ([2]; at 91.3 µM (top of the series))",activity change ([3]; at 91.3 µM (top of the series)),"fluorescence, % of fluorescent control ([4]; at 91.3 µM (top of the series))","fluorescence, % of Rose Bengal ([5]; at 91.3 µM (top of the series))","fluorescence, % of fluorescent control ([6]; at 91.3 µM (top of the series))","fluorescence, % of fluorescein control ([7]; at 91.3 µM (top of the series))","fluorescence, % of fluorescent control ([8]; at 91.3 µM (top of the series))",activation ([9]; at 62.4 µM (top of the series)),activation ([9]; at 79.2 µM (top of the series)),Potency [10],"fluorescence, % of fluorescein ([1]; at 95.7 µM (top of the series))","fluorescence, % of fluorescent control ([2]; at 95.7 µM (top of the series))",activity change ([3]; at 95.7 µM (top of the series)),"fluorescence, % of fluorescent control ([4]; at 95.7 µM (top of the series))","fluorescence, % of Rose Bengal ([5]; at 95.7 µM (top of the series))","fluorescence, % of fluorescent control ([6]; at 95.7 µM (top of the series))","fluorescence, % of fluorescein control ([7]; at 95.7 µM (top of the series))","fluorescence, % of fluorescent control ([8]; at 95.7 µM (top of the series))"
CCOP(=S)(Cl)OCC,inactive: 0.129%,inactive: -0.16%,inactive: -0.111%,inactive: -0.291%,inactive: -0.217%,inactive: -0.0897%,inactive: -0.0387%,inactive: 0.0259%,inactive: 0.181%,–,–,–,–,–,–,–,–,–,–
CCOP(=O)(Cl)Cl,inactive: 0.0542% and inactive: -0.0516%,inactive: 0.057% and inactive: -0.124%,inactive: 0.0784% and inactive: -0.0016%,inactive: 0.252% and inactive: 0.15%,inactive: 0.0607% and inactive: 0.039%,inactive: -0.168% and inactive: -0.0933%,inactive: 0.0038% and inactive: 0.0324%,inactive: 0.0124% and inactive: -0.0551%,–,–,–,–,–,–,–,–,–,–,–
ClCCOP(OCCCl)OCCCl,inactive: -0.0704% and inactive: 0.0087%,inactive: -0.352% and inactive: -0.0885%,inactive: -0.0874% and inactive: 0.0022%,inactive: -0.0875% and inactive: -0.0628%,inactive: 0.261% and inactive: -0.115%,inactive: 0.0106% and inactive: -0.0488%,inactive: -0.126% and inactive: 0.0807%,inactive: -0.238% and inactive: -0.0037%,inactive: -1.98%,inactive: 2.43%,inactive,–,–,–,–,–,–,–,–
O=[N+]([O-])c1ccccc1[N+](=O)[O-],inactive: 0.0167%,inactive: 0.0036%,inactive: 0.146%,inactive: -0.143%,inactive: 0.0098%,inactive: 0.0461%,inactive: -0.0344%,inactive: 0.0179%,inactive: 0.123%,inactive: -13.3%,active: 44.8 µM and inactive,inactive: -0.0095%,inactive: -0.344%,inactive: 0.123%,inactive: -0.116%,inactive: -0.0595%,inactive: 0.12%,inactive: 0.0367%,inactive: -0.0901%
